{
  "source": "patent US5856309A",
  "about": "“Amidinopyrroline derivatives, processes for their production and pharmaceutical agents containing these compounds” (Boehringer Mannheim GmbH, priority 1997, dated 1999)",
  "target": "T1, human thrombin (Homo sapiens, UniProt P00734)",
  "T1 construct": "Thrombin is kept ready in the plasma in the form of prothrombin and is released from this by factor Xa; purchased Sigma",
  "experiment": "Thrombin inhibition, kinetic measurement with substrate S-2238",
  "type": "biochemical",
  "settings": "substrate H-(D)-Phe-Pro-Arg-pNA (S-2238), pH=7.5, 25° C., read-out: inhibition constant Ki (thrombin)",
  "procedure": "The kinetic measurements were carried out in 0.1M phosphate buffer which contained 0.2M sodium chloride and 0.5% polyethylene glycol 6000 at a pH=7.5 and 25° C. using the substrate H-(D)-Phe-Pro-Arg-pNA (S-2238 Kabi) and human thrombin (Sigma, specific activity=2150 NIH units/mg) in polystyrene semimicro-cuvettes in a total volume of 1 ml.\nFor this the reaction was started first by adding 0.03 NIH units thrombin to a 100 μM solution of the substrate and the active substance. In a second experiment substrate was added to a solution of thrombin and the active substance which had been incubated for 5 min. The increase of the concentration of p-nitro-anilide with time was monitored spectrophotometrically for 12 min at 405 nm (UV-VIS spectrophotometer Lambda-2 from the Perkin-Elmer Company). […] The inhibition constant Ki was determined as follows. […] The increase in absorbance at 405 nm caused by the formation of p-nitroanilide was monitored for a time period of 12 min. Measurement points (time versus absorbance) were transferred to a PC at intervals of 20 sec. The rates Vo (changes in absorbance per see; measurements without inhibitor) and Vi (measurements with inhibitor) were determined from the data by linear regression. […] From one measurement series (constant inhibitor concentration, variable substrate concentrations) Km' and Vmax were determined by a non-linear fit to the equation [formula] […]",
  "data": [
    {"substance": "D-Pla-D-Phe-L-Choi-Adc [Example 1]", "values": [
      {"measurement": "Ki", "value": 150, "unit": "nM"}
    ]}
  ]
}
